Binding of CDR-mutated scFvs to a peptide of the spike HR2 region

Source: Li et al. 2023 (doi:10.1038/s41467-023-39022-2), MIT Lincoln Laboratory and A-Alpha Bio; data file from the FLAb repository.

Target peptide (SARS-CoV-2 spike, HR2 region): PDVDLGDISGINAS

The variants keep the heavy chain, the linker and the frameworks of Ab-14 (scFv order VH, three GGGGS repeats, VL).
VH: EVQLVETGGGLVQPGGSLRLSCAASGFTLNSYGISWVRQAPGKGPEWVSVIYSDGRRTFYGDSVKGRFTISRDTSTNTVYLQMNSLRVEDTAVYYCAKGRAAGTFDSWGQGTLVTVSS
VL: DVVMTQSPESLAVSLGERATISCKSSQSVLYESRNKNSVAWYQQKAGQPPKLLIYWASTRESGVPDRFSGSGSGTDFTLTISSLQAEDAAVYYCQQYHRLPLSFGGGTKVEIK

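Phage display of a naive human antibody library on the peptide gave the parent. This is the validation round: designs drawn from the data on random variants, tested in the same kind of assay. Their group label is 14L_Ctrl (Ctrl: baseline library sampled from a position-specific scoring matrix, with some repeated check sequences). Affinity was read by AlphaSeq, a pooled yeast mating assay with surface-displayed partners. The frequency of each diploid, read from paired DNA barcodes, reflects how well the two displayed proteins bind. A regression on co-assayed BCL2-family reference pairs converts the normalised counts of each replicate to an apparent Kd. The assay was run in six technical replicates.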

Positions count from residue 1 of the parent VL; S26N puts N in place of S.
Affinities are written as log10 Kd with Kd in nM; a lower number is a better binder.
The mean shown is taken over the replicates in which the pair was detected.
Where no diploid with the target was found in that replicate, the entry reads "ND": below detection, most likely a poor binder, though not proof of it.
Of ten entries with the parent sequence, four were seen in most replicates (averages 0.34 to 2.37), three in one and three in none, so single entries are noisy.
The range of this assay differs from that of the first round, and the authors advise against merging the two.
The authors' rule: three or more of the six replicates give a measured affinity, fewer mean a poor binder.
Background: pairings of all light chain designs with three empty control strains gave a value in 4% of cases (median 2.64, 5th percentile 1.59). Values in that range, when seen in few replicates, are hard to tell from nonspecific mating. The control count says in how many pairings with the empty strains this scFv gave a signal, with their mean in brackets.

changes,"replicates, log10 nM",mean log10 Kd (nM),empty controls
S26N/Y31E,ND / ND / 1.91 / 1.48 / ND / ND,1.70,0/18
S25V/W56S/Q95T/R99V,-0.50 / -0.39 / -0.79 / 0.02 / -0.65 / -0.56,-0.48,0/18
W56Y/R60N/R99K,ND / ND / ND / ND / ND / ND,ND,0/18
W56S/L100T,ND / ND / ND / ND / ND / ND,ND,0/18
S25L/V29W/S33G/W56S,1.03 / 1.28 / 0.95 / 1.08 / 1.55 / 1.49,1.23,1/18 (2.74)
S25L/W56S/R60L/E61F,0.62 / 0.27 / 0.21 / 0.25 / 0.09 / 0.39,0.31,0/18
K24R/Y31Q/W56Y,ND / ND / ND / ND / ND / ND,ND,0/18
K24R/L30E/W56S/S58Y/S62P,0.93 / 0.54 / 1.05 / 0.47 / 1.10 / 0.48,0.76,0/18
R34G/K36F,2.50 / 1.85 / 1.87 / 2.72 / 2.43 / 2.85,2.37,0/18
V29S/Y31R/W56G/H98A,0.62 / 0.72 / 0.18 / -0.07 / 0.18 / 0.19,0.31,1/18 (2.49)
V29I/L30F/E32D/N37Y/W56Y/Y97V,ND / ND / ND / ND / ND / ND,ND,0/18
Y31D/S33D,2.08 / 1.12 / 1.49 / 1.43 / 1.93 / 2.13,1.70,1/18 (2.02)
S26P/Y31V/K36G/W56V,ND / ND / ND / ND / ND / ND,ND,0/18
S38P/W56E,1.75 / 0.22 / 0.44 / -0.18 / 1.01 / 0.91,0.69,0/18
S28Y/S33R/K36E,0.46 / 0.06 / -0.01 / -0.22 / -0.15 / 0.42,0.09,3/18 (2.42)
S25W/E32D/W56A/S62M,-0.01 / 0.15 / 0.07 / -0.20 / -0.26 / 0.09,-0.03,0/18
L30F/K36E,1.93 / 1.17 / 1.44 / 1.22 / 0.86 / 1.25,1.31,1/18 (1.51)
S38A/S103F,2.47 / 2.04 / 1.77 / 1.62 / 2.02 / 1.83,1.96,0/18
S28E/N37E/W56A/H98M,-0.28 / -0.14 / -0.17 / -0.32 / -0.28 / -0.21,-0.23,0/18
S25M/Y31M/R34E/W56D,-0.04 / -0.24 / -0.35 / -0.19 / -0.34 / -0.35,-0.25,0/18
V29G/K36H/N37P/W56Q/H98V/L102E,ND / 1.73 / ND / 1.40 / 1.41 / 1.64,1.54,0/18
S26A/Q27A/S28G/Y31Q/E61M,1.37 / 1.81 / 1.96 / 1.16 / 1.46 / 1.87,1.61,1/18 (2.33)
S28A/N35V,ND / ND / 0.72 / ND / ND / 2.14,1.43,0/18
Y31T/R60H/Q96M,ND / ND / ND / ND / ND / ND,ND,0/18
R34N/Y97T/S103F,ND / ND / ND / ND / ND / ND,ND,1/18 (2.02)
S26H/R34P,3.78 / 1.59 / 1.86 / 2.58 / 1.89 / 2.62,2.39,0/18
Y97R,ND / ND / ND / ND / ND / ND,ND,0/18
S62F/H98F,ND / ND / ND / 2.67 / ND / 1.63,2.15,0/18
S25M/Y31V/E32S,ND / 1.23 / 0.56 / ND / 0.59 / 1.68,1.01,0/18
K24S/E32S/W56Q,1.88 / 3.51 / 2.99 / 1.65 / 1.61 / 1.51,2.19,0/18
S25L/Q27M/L30Q/H98A,1.18 / 1.64 / 1.04 / 0.71 / 1.10 / 1.42,1.18,0/18
L30I/Q95N,ND / ND / ND / ND / ND / ND,ND,0/18
S25L/H98G,-0.23 / -0.03 / 0.14 / 0.12 / 0.14 / 0.36,0.08,0/18
K24N/Q27D/S38N/R99Y,3.03 / 2.14 / 2.09 / 2.51 / 2.34 / 2.40,2.42,1/18 (4.28)
S25L/S62N/Q95A/L102V,ND / 1.93 / ND / 2.92 / ND / 3.80,2.88,0/18
V29E/N35P/Q96A,ND / 2.07 / 1.24 / ND / 1.83 / ND,1.71,0/18
V29Y/R34T/K36C/S38N,ND / ND / ND / ND / ND / 2.30,2.30,0/18
E61V,2.07 / 1.99 / ND / 2.62 / 2.70 / 2.24,2.32,1/18 (1.70)
K24Q/V29T,ND / ND / 1.52 / 2.12 / 2.29 / 2.00,1.98,1/18 (2.65)
Q27G/S28P/N37A/W56Q/H98C,1.05 / 1.27 / 0.92 / 0.75 / 1.19 / 1.37,1.09,1/18 (2.63)
Q27H/S38V/S58T,ND / ND / ND / ND / ND / ND,ND,0/18
S25F/E32D/R34H,0.21 / 0.44 / 0.17 / 0.39 / 0.48 / 0.85,0.42,1/18 (1.57)

Extract of 6 entries:

changes,"replicates, log10 nM",mean log10 Kd (nM),empty controls
S26P/Y31V/K36G/W56V,ND / ND / ND / ND / ND / ND,ND,0/18
S25L/Q27M/L30Q/H98A,1.18 / 1.64 / 1.04 / 0.71 / 1.10 / 1.42,1.18,0/18
S25W/E32D/W56A/S62M,-0.01 / 0.15 / 0.07 / -0.20 / -0.26 / 0.09,-0.03,0/18
V29S/Y31R/W56G/H98A,0.62 / 0.72 / 0.18 / -0.07 / 0.18 / 0.19,0.31,1/18 (2.49)
W56S/L100T,ND / ND / ND / ND / ND / ND,ND,0/18
S62F/H98F,ND / ND / ND / 2.67 / ND / 1.63,2.15,0/18